Measurements taken from US20160272683A1 (Novo Nordisk, published 2016).

Assays:
[1] = biological target: rat calcitonin receptor (rat) (UniProt P32214); assay: SPA competition vs 125I-calcitonin, membranes with rat CTR (Assay VIII)
[2] = biological target: T1, human amylin receptor (amylin 3(a) receptor: human calcitonin receptor with RAMP-3) (human, UniProt P30988 25-474; O60896 24-148, limits assumed); assay: SPA competition vs 125I-rat amylin, membranes with human CTR + RAMP-3 (Assay V)
T1 construct: whole, on cells; Assay V: membranes of the Amylin 3(a)/CRE-luc BHK cells on SPA beads; also called hAmylin-R
T1 sequence (looked up) 1: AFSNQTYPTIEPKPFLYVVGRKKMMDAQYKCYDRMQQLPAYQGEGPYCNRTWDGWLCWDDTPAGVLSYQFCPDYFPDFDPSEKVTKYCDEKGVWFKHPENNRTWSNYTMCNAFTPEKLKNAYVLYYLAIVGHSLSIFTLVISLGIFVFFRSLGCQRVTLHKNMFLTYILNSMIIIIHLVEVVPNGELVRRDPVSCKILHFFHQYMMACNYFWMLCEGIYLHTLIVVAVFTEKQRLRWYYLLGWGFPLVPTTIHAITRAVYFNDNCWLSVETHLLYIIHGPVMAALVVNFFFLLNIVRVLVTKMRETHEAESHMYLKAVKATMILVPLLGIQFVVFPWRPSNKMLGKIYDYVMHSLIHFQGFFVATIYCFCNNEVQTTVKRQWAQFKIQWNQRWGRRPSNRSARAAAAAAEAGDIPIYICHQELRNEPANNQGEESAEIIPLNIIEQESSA
T1 sequence (looked up) 2: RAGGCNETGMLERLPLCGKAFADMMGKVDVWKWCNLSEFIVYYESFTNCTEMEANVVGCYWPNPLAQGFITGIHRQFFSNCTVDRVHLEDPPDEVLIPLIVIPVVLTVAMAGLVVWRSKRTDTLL
Method: The binding assay was performed using scintillation proximity assay (SPA) beads (RPNQ0001) from PerkinElmer and cell membranes from the Amylin 3(a)/CRE-luc cells (as described in Assay (II)) were used. Membranes were prepared in the following way; the cells were rinsed with PBS and incubated with Versene for approximately 5 min before harvesting. The cells were flushed with PBS and the cell-suspension was centrifuged for 5 min at 1000 rpm. […] The resulting pellet was resuspended in buffer 2 and protein concentration was tested (BCA protein Assay, Pierce). The homogenate was kept cold during the whole procedure. The membranes were kept at −80° C. until use. The assay was performed in a 384 well Optiplate (PerkinElmer) in a total volume of 40 ul. Membranes were mixed with SPA beads. Final concentration of membranes 35 ng/μL final and SPA beads was 0.05 mg/well. Test-compounds were dissolved in DMSO and further diluted in assay buffer (50 mM Hepes, pH 7.4, 1 mM CaCl2, 5 mM MgCl2, 0.1% OA and 0.02% Tween20). […] Samples were analyzed on TopCounter™ (Packard). The IC₅₀ was calculated using (one site binding competition analysis) GraphPad Prism5 as a measure of receptor affinity.

B1: [N-terminal(C20 diacid-gGlu-2xOEG), des1, 4G, 9V, 15Q, 21Q, 23Y, 30S, 31G, 32T, 33Y]mimylin (peptide)
peptide: ASGLSTAVLGRLSQELHELQTYPRTETGSGTY
modifications: C20 diacid-gGlu-2xOEG side chain on the alpha-amino group of the N-terminal residue; C-terminal amide
Binder B1 has an IC50 [1] of 0.027 nM.

B2: [des1, 27K(C20 diacid-gGlu), 30S, 31G]mimylin (peptide)
peptide: ASELSTAALGRLSAELHELATLPRTKTGSGSP
modifications: C20 diacid-gGlu side chain on the epsilon-amino group of Lys 27 (numbering of SEQ ID NO: 1); C-terminal amide
notes: mimylin derivative; des1 = residue 1 deleted; also called Ex. #55; 55
With B2 the IC50 [1] was 0.027 nM and the IC50 [2] was 0.202 nM.
